Laboratory results published in PMC6010526, “In Silico Approaches Applied to the Study of Peptide Analogs of Ile-Pro-Ile in Relation to Their Dipeptidyl Peptidase IV Inhibitory Properties” (Frontiers in Endocrinology, 2018).

Sequences of proteins named here, by UniProt entry; tags and fusion partners are left off. A change or cut given only in a name is not applied to a line headed by its entry.
UniProt P22411: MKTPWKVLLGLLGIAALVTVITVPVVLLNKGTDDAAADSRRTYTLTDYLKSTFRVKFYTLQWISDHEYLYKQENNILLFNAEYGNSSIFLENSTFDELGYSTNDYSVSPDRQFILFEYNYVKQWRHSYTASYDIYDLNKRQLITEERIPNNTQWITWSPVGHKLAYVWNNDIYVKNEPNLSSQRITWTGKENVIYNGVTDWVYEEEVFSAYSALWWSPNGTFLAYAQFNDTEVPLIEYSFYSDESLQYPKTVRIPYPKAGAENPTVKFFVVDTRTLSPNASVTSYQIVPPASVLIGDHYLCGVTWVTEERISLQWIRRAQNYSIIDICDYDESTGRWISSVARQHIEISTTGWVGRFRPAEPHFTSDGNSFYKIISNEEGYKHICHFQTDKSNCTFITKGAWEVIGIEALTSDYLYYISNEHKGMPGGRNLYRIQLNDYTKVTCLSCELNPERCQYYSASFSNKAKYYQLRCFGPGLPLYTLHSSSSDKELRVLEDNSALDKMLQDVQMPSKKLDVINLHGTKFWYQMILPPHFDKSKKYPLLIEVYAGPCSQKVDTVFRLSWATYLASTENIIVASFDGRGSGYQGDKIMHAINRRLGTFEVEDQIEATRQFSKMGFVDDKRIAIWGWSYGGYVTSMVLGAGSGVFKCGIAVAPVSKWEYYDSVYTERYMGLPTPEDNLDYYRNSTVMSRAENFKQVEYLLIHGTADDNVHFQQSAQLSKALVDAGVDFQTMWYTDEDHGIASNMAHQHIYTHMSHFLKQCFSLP

How the values were obtained:
porcine DPP-IV [1] = biological target: T1, porcine DPP-IV (Sus scrofa, UniProt P22411); assay: DPP-IV inhibition assay with Gly-Pro-pNA substrate; type: biochemical; design: purchased Sigma Aldrich (Dublin, Ireland); details: for IC50: porcine DPP-IV, Gly-Pro-pNA 0.200 mM, 37°C, n = 3, read-out: Experimental DPP-IV IC50
Protocol: Peptides were dispersed in HPLC grade water at 50 and 500 µM (final concentration). The DPP-IV inhibition assay was carried out in triplicate as outlined by Nongonierma and FitzGerald ([18]). Briefly, samples (25 μL) were mixed with Gly-Pro-pNA (final concentration 0.200 mM) and DPP-IV (final concentration 0.0025 U mL^−1) in a 96-well microplate (Sarstedt, Dublin, Ireland). The microplate was incubated at 37°C for 60 min in a microplate reader (Biotek Synergy HT, Winooski, VT, USA) and absorbance was monitored at 405 nm.
Dose–response curves were determined for peptides displaying a percentage of inhibition > 50% at 500 µM. Peptides were diluted in HPLC water at concentrations ranging from 0.37 to 500 µM (final concentration). The DPP-IV IC50 values were determined by plotting the percentage inhibition as a function of the test compound concentration. Each analysis was carried out in triplicate (n = 3).

porcine DPP-IV [2] = biological target: T1, porcine DPP-IV; assay: Stability of peptides to hydrolysis by DPP-IV (LC-MS/MS); details: for Hydrolysis by DPP-IV (stability), in words: 30 min incubation with DPP-IV; for Peptide hydrolyzed by DPP-IV: peptide at 1/4 of IC50, 30 min at 37°C, Tris-HCl buffer pH 8.0

inhibition at 500 µM (porcine DPP-IV [1]; peptide at 500 µM) | IC50 (porcine DPP-IV [1]) | Hydrolysis by DPP-IV (stability), in words (porcine DPP-IV [2]) | Peptide hydrolyzed by DPP-IV (porcine DPP-IV [2]) | Structure (SMILES)
90.1 ± 1.8% | 45.2 ± 5.3 µM | not hydrolyzed by DPP-IV | NO | CC[C@H](C)[C@H](NC(=O)[C@@H]1CCCN1C(=O)[C@@H](N)Cc1ccccc1)C(=O)O [FPI, Phe-Pro-Ile]
 | 3.9 ± 1 µM |  |  | CC[C@H](C)[C@H](N)C(=O)N1CCC[C@H]1C(=O)N[C@H](C(=O)O)[C@@H](C)CC [IPI, Ile-Pro-Ile]
 | 133 ± 14.7 µM | not hydrolyzed by DPP-IV | NO | CC[C@H](C)[C@H](NC(=O)[C@@H]1CCCN1C(=O)[C@@H](N)Cc1c[nH]c2ccccc12)C(=O)O [WPI, Trp-Pro-Ile]
